Results taken from US20040018528A1, “Novel biomarkers of tyrosine kinase inhibitor exposure and activity in mammals” (Sugen, Inc., priority 2002, published 2004).

System: soluble VEGFR2
Conditions: Trials A, B and C; chronic time points (13 days or more) after start of treatment

## CCN(CC)CCNC(=O)c1c(C)[nH]c(C=C2C(=O)Nc3ccc(F)cc32)c1C [Compound 1, 5-(5-Fluoro-2-oxo-1,2-dihydro-indol-3-ylidenemethyl)-2,4-dimethyl-1H-pyrrole-3-carboxylic acid (2-diethylamino-ethyl)-amide]
  patients with decrease of plasma soluble VEGFR2: greater than 90%
